The target of this assay is Glucagon-like peptide 1 receptor (Homo sapiens) (UniProt P43220). The experiment in a line: qHTS of GLP-1 Receptor Agonists. Also: % of control where 0% means no effect. Conditions: HEK293 GLP-1R CRE-luciferase, luminescence, 4-6 h, cells express a hypersensitive GLP-1R form; at 45.6 µM (top of the series) unless noted. An excerpt:
The overall goal of this project was to develop a novel assay for discovering small molecule ligands for class B1 G protein-coupled receptors (GPCRs). Very few agonists (or inverse agonists) with generally weak activity for this entire group of physiologically important receptors are known to date. To establish proof-of-principle that this critical bottleneck can be overcome with a suitable screening approach, our studies focused on the class B1 receptor for glucagon-like peptide-1 (GLP-1R), a potential therapeutic target for diabetes and neurodegenerative disease.
The assay was developed in a "mix and measure" format using a cell-based functional readout. Toward this goal, stably transfected HEK293 cell clones were established that co-express (i) a cAMP-responsive luciferase reporter gene, and (ii) GLP-1Rs that upon ligand interaction either stimulate (agonists) or inhibit (inverse agonists) luciferase activity. In different cell lines to be used for screening, expressed GLP-1Rs are specifically optimized for high sensitivity detection of either weak agonists (hypersensitive receptor) or inverse agonists (constitutively active receptor mutant). In addition, control cell lines were developed that express either the cAMP-responsive reporter gene without recombinant GLP-1Rs (enabling initial exclusion of GLP-1R independent effects of candidate probes), or the reporter gene together with wild type GLP-1Rs (for confirmation of probe activity at this receptor), or the reporter gene in combination with the constitutively active orphan receptor GPR119 (enabling initial exclusion of GLP-1R independent inhibitory effects of candidate inverse agonists).
To that end, this assay was optimized for 1536-well format and screened against the MLSMR.
NIH Molecular Libraries Probe Production Network [MLPCN]
NIH Chemical Genomics Center [NCGC]
PI Name: Martin Beinborn, Tufts Medical Center
In a white solid 1536-well plate, 6 uL of cells are dispensed in DMEM without phenol red, 10% Nu serum, and 1% pen-strep medium. The plates are then incubated for 12 hours at 37 deg C at 5% CO2 before 23 nL of compounds are added. After a 4-6 hr incubation at37 deg C and 5% CO2, 3 uL of detection reagent are added and after a 12 min incubation at RT, a luminescent read is obtained on the ViewLux.

Sequences of proteins named here, by UniProt entry; tags and fusion partners are left off. A change or cut given only in a name is not applied to a line headed by its entry.
UniProt P43220, whole entry, stated change not applied: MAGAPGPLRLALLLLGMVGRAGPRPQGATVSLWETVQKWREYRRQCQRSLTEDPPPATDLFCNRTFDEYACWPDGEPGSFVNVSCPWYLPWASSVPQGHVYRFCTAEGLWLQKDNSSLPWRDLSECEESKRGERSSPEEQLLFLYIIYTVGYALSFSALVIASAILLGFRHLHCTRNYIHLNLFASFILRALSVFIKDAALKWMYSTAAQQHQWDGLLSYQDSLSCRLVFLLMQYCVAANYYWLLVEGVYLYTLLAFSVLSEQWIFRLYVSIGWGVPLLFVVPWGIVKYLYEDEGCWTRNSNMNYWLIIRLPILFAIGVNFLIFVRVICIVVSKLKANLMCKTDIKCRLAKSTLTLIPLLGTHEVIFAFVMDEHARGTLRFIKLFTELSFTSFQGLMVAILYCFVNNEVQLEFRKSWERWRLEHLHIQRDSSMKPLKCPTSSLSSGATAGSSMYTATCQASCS

Only a part is listed here, and it is no random draw. Calls of active or inactive are those of the source. Calls follow the shape of the dose curve; as a rule, active = well fitted activation curve with a large enough effect; inconclusive = small, poorly fitted or top-dose-only effect; inactive = no such curve, though single readings can be large or run the other way.

On to `Cc1cccc([N+](=O)[O-])c1[N+](=O)[O-]`, for which the activation is inactive: 0.496% [at 96 µM]. Then `CCOC(=O)c1ccc(NP(C)(=O)Oc2ccc(F)cc2)cc1` (stereo not given), with inactive: -0.324%; and `COc1ccc(OP(C)(=O)Nc2ccc(SC(F)(F)F)cc2)cc1` (stereo not given), with inactive: 17.1%; and `Cc1c([N+](=O)[O-])cc([N+](=O)[O-])c(Br)c1[N+](=O)[O-]`, with inactive: 0.533%. Regarding `CCN(CC)CCCOC(=O)C(O)(c1ccccc1)C1CCCCC1` (stereo not given), the activation was inactive: 1.01%.

Consider `CP(=O)(Nc1ccccc1)Oc1ccc(F)cc1` (stereo not given), for which the activation was inactive: 1.32%.

Turning to `CCCCCOc1ccc(NP(C)(=O)Oc2ccc(Cl)cc2Cl)cc1` (stereo not given), the activation was inactive: -3.69%. Turning to `CP(=O)(Nc1ccccc1F)Oc1ccccc1` (stereo not given), the activation was inactive: -0.11%. As to `CC(C)c1ccc(OP(C)(=O)Nc2ccc(SC(F)(F)F)cc2)cc1` (stereo not given), the activation was inactive: -3.94%. With `O=C(OCCN1CCN(CCOCc2ccccc2)CC1)C(O)(c1ccccc1)c1ccccc1`, the activation was inactive: -4.39%.

Take `CCOP(=O)(CC)Oc1ccc([N+](=O)[O-])cc1` (stereo not given): the activation was inactive: -2.99%.

Turning to `CP(=O)(Nc1ccc(SC(F)(F)F)cc1)Oc1ccc(F)cc1` (stereo not given), the activation is inactive: 0.909%. For `CCOP(C)(=S)SCC(=O)NC(C)(CC)C(=O)O` (stereo not given), the activation was inactive: -2.42%. Take `CP(=O)(Nc1ccc2c(c1)OCCO2)Oc1ccccc1` (stereo not given): the activation is inactive: -5.22%. Consider `Cc1ccccc1NP(C)(=O)Nc1ccccc1C`, for which the activation is inactive: -3.09%. Take `O=[N+]([O-])c1cc([N+](=O)[O-])c(C(F)(F)F)c([N+](=O)[O-])c1O`: the activation is inactive: 4.78%. With `COc1ccc(OP(C)(=O)Nc2cccc(Br)c2)cc1` (stereo not given), the activation is inactive: 6.58%. Then `CN(C)CCOC(=O)C(O)(c1ccccc1)C1CCCCC1` (stereo not given), with inactive: 2.33%; and `COc1ccc(NP(C)(=O)Oc2ccccc2OC)cc1` (stereo not given), with inactive: 1.76%; and `O=[N+]([O-])c1ccc(OP2(=O)COCCO2)cc1` (stereo not given), with inactive: 5.31%.

In the case of `Cc1cc(-c2cccc3ccccc23)c(C)cn1.O=[N+]([O-])c1cc([N+](=O)[O-])c(O)c([N+](=O)[O-])c1`, the activation was inactive: 1.65%. For the compound `Cc1c(C(c2ccc3c(c2)OCO3)c2c(C)n(C)n(-c3ccccc3)c2=O)c(=O)n(-c2ccccc2)n1C.O=[N+]([O-])c1cc([N+](=O)[O-])c(O)c([N+](=O)[O-])c1`, the activation is inactive: -2.58%. Regarding `Nc1ccc2c(ccc3cccnc32)n1.O=[N+]([O-])c1cc([N+](=O)[O-])c(O)c([N+](=O)[O-])c1`, the activation is inactive: 4.37%. Take `CCOC(=O)c1ccc(NP(C)(=O)Oc2ccc(Cl)cc2)cc1` (stereo not given): the activation is inactive: 12%. The result for `CP(=O)(OC12CC3CC(CC(C3)C1)C2)OC12CC3CC(CC(C3)C1)C2` reads inactive: -3.75%. The result for `CC(C)OP(=O)(F)OC(C)C` reads inactive: -2.49%; that for `C/C1=C2N=C(/C=C3N=C(/C(C)=C4\[N-][C@@](C)([C@H]5N=C1[C@@](C)(CCC(=O)NC[C@H](C)OP(=O)([O-])O[C@@H]1[C@H](O)[C@H](n6cnc7cc(C)c(C)cc76)O[C@@H]1CO)[C@@H]5CC(N)=O)[C@](C)(CC(N)=O)[C@H]4CCC(N)=O)[C@@](C)(CC(N)=O)[C@@H]\3CCC(N)=O)C(C)(C)[C@@H]/2CCC(N)=O.[C-]#N.[Co+3]`, inactive: -0.0013% [at 19.8 µM]; that for `COc1ccc(OP(C)(=O)Nc2ccc(Br)cc2)cc1` (stereo not given), inactive: 7.46%. For `CCN(CC)CC(O)COC(=O)C(O)(c1ccccc1)C1CCCCC1` (stereo not given), the activation was inactive: -11.6%. Take `N#[O+].[C-]#N.[C-]#N.[C-]#N.[C-]#N.[C-]#N.[Fe+2].[Na+].[Na+]`: the activation is inactive: 8.95%. For `OCCSCCO`, the activation is inactive: 2.52%. In the case of `O=C(OCCCN1CCCC1)C(O)(c1ccccc1)C1CCCCC1` (stereo not given), the activation is inactive: -18.4%.

For `COc1ccccc1OP(C)(=O)Nc1c(C)n(C)n(-c2ccccc2)c1=O` (stereo not given), the activation is inactive: -8.93%. Take `CCc1ccc(OP(C)(=O)Nc2cccnc2)cc1` (stereo not given): the activation is inactive: -0.572%.

`CP(=O)(Oc1ccccc1)N1CCOC1=O` (stereo not given): the activation was inactive: -2.09%. As to `COc1ccccc1OP(C)(=O)Nc1ccccc1Br` (stereo not given), the activation was inactive: 0.4%.

Take `CC(C)(C)c1ccc(OP(C)(=O)O)cc1`: the activation was inactive: -14.1%. Then `CP(=O)(Nc1ccc(Cl)cc1)Oc1ccc(F)cc1` (stereo not given), with inactive: 3.59%; and `CN(C)C(=O)c1c([N+](=O)[O-])cc([N+](=O)[O-])cc1[N+](=O)[O-]`, with inactive: -7.13%.

Regarding `COc1ccccc1OP(C)(=O)Nc1ccc(Br)cc1` (stereo not given), the activation is inactive: 10.1%.

Regarding `COc1ccc(OP(C)(=O)Nc2ccccn2)cc1` (stereo not given), the activation was inactive: 0.628%. Turning to `CN(C)CCOC(=O)C(O)(c1ccccc1)C1CCCC1` (stereo not given), the activation is inactive: -1.44%. Turning to `Cc1c(NP(C)(=O)Oc2ccc(C(C)C)cc2)c(=O)n(-c2ccccc2)n1C` (stereo not given), the activation is inactive: 3.62%. On to `O=[N+]([O-])c1cc([N+](=O)[O-])c(Nc2ccccn2)c([N+](=O)[O-])c1`, for which the activation is inactive: -4.25%. Turning to `COc1ccccc1OP(C)(=O)Nc1ccc(C)cc1C` (stereo not given), the activation is inactive: 7.87%. Then `CP(=O)(Nc1ccccn1)Oc1ccccc1` (stereo not given), with inactive: -0.364%; and `CCc1ccc(OP(C)(=O)O)cc1`, with inactive: 3.88%. Then `Cc1cc(C)cc(OP(C)(=O)Nc2cccc(C(F)(F)F)c2)c1` (stereo not given), with inactive: 7.7%; and `COc1ccccc1OP(C)(=O)Nc1ccc(C)c(C)c1` (stereo not given), with inactive: -1.12%. The result for `COc1ccc(OP(C)(=O)Nc2ccccc2Br)cc1` (stereo not given) reads inactive: 13.9%.

The values above are taken from PubChem BioAssay AID624172 (National Center for Advancing Translational Sciences (NCATS), 2012).
